Assay [1] concerns the target T1, human CB2 receptor (Homo sapiens, UniProt P34972).
T1 construct: expressed in transfected cells; membranes
The assay is described as follows: [3H]-CP-55940 competition binding, CHO membranes. The following applies: radioligand 0.3 nM [3H]-CP-55940, CHO membranes.

The chains behind the UniProt entries cited, without tags or fusion partners.
UniProt P34972, whole entry: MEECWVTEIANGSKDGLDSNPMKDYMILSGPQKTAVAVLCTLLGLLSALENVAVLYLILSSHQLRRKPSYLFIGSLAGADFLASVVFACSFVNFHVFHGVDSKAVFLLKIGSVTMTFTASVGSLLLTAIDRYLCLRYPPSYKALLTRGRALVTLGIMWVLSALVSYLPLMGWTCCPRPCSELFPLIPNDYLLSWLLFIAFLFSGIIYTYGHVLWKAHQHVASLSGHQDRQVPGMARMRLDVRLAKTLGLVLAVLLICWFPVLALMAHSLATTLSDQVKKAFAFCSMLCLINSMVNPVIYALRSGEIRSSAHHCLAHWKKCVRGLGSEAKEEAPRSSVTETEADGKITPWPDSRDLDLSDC

In assay [2] the target is T1, human CB2 receptor. Briefly: [3H]-WIN-55,212-2 competition binding, CHO membranes. The following applies: radioligand 3 nM [3H]-WIN-55,212-2, CHO membranes.

We go through one molecule from article PMC6021502, “Cannabigerol Action at Cannabinoid CB1 and CB2 Receptors and at CB1–CB2 Heteroreceptor Complexes” (Frontiers in Pharmacology, 2018).

`C=C(C)[C@@H]1CCC(C)=C[C@H]1c1c(O)cc(CCCCC)cc1O` [CBD, cannabidiol, reference compound]: the Ki (in general, the equilibrium dissociation constant of an inhibitor or competing ligand from its target) was determined as 1710 nM at human CB2 receptor [1] and 4020 nM on human CB2 receptor [2].
